Target: Alkaline phosphatase, placental type (Homo sapiens, UniProt P05187)
Assay: Inhibition of PLAP (unknown origin)

By UniProt entry, the sequences of proteins in these tests, tags left out. Where a name states a change or a piece, a line headed by the entry shows the natural chain unless it says otherwise.
UniProt P05187: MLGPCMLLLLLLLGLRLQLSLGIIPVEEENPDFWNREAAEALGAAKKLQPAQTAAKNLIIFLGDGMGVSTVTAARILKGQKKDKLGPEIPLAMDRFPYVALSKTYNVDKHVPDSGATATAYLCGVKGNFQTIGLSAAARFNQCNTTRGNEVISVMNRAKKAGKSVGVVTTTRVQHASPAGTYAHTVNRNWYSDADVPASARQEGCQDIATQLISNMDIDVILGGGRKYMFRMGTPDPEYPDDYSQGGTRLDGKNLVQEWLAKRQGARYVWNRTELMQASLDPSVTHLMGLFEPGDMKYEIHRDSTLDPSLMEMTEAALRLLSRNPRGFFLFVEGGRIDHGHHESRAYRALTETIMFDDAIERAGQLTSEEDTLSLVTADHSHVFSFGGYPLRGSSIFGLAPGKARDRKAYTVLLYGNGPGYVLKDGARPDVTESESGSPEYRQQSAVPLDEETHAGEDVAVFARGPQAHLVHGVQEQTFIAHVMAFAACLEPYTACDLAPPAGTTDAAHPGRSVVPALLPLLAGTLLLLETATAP

IC50: 2500 nM
Compound: Cc1nc2ccccc2n1CC(=O)c1ccc(O)c(O)c1
